# scFv variants of Ab-91 (heavy chain) against a SARS-CoV-2 spike peptide

Target: peptide PDVDLGDISGINAS, taken from heptad repeat 2 (HR2) of SARS-CoV-2 spike.

Each scFv is VL, a 15-residue (Gly4Ser)3 linker, VH, as in the parent Ab-91, and differs from it in the CDRs of the heavy chain only.
VL: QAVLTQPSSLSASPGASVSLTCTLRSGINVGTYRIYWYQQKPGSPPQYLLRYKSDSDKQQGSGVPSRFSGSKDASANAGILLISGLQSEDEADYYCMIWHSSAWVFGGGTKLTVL
VH: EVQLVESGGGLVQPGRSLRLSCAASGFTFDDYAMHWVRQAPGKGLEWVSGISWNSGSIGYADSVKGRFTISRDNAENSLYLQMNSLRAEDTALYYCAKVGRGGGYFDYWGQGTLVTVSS

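The library (AAYL51) carries one to three amino acid substitutions per variant, with no insertions or deletions. AlphaSeq pools MATa yeast showing the antibodies with MATalpha yeast showing the peptide. Binding brings cells together so that they mate, and sequencing counts the barcode pairs among the diploids. Read counts were normalised to the haploid input and turned into Kd by a linear fit to BCL2-family pairs of known affinity, for each replicate. Each pool was mated in three replicate cultures.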

Each variant is given by its three heavy chain CDRs, as the data file delimits them; those of the parent are GFTFDDYAMH, GISWNSGSIGYADSVK, VGRGGGYFDY. Numbers give log10(Kd / nM), so 0 is 1 nM and 3 is 1 µM. Smaller is tighter. Replicates are averaged; those with no signal do not enter the mean. An entry "ND" has no value in the source: the pair was not observed among the diploids in that replicate. This suggests poor binding but is not conclusive.

GFTFDDYAMR, GISWNSGSIGYADNVK, VGRGGGYFDY: ND, ND, ND (controls 1 of 9).
GFTFDDYAMH, GISWSSRSIGYADQVK, VGRGGGYFDY: 3.58, ND, 4.16 (mean 3.87; controls 2 of 9).
GFTFDDYAMQ, GISGNSGSIGYADSVK, VGRGGGYFDY: 5.96, ND, 5.43 (mean 5.70; controls 4 of 9).
GLTEDDYAMH, GISWNSGSIKYADSVK, VGRGGGYFDY: 4.69, ND, ND (controls 3 of 9).
GFTFDDYALH, GISWNSGSIGYADSVK, VGRGGGYFDP: ND, ND, ND (controls 2 of 9).
GFTFDDFAMH, GISWNSGSIGYADSVK, VTRGGGYFDY: 4.00, ND, ND (controls 1 of 9).
KFTFDDYAMH, GISWNKGSIGYADSVK, VGRDGGYFDY: ND, ND, 4.28 (controls 0 of 9).
GFTFQDYAMH, GISWNSGSIGYAHSVK, VGRGGGYFDR: 4.37, 4.49, 4.26 (mean 4.37; controls 9 of 9).
GFTFDDYAME, GISWNVGSIGYADSVK, VGRVGGYFDY: ND, 3.71, ND (controls 1 of 9).
GFTLDDYAMH, GISWNSGSIGYAMCVK, VGRGGGYFDY: ND, 5.35, ND (controls 0 of 9).
GFTFDDYMMH, GISWNSGSIGYADSVK, VGRGGGYFKY: 3.85, 6.72, 4.95 (mean 5.17; controls 5 of 9).
GFTFDDYAMH, GWSWNSGSIGYHDSVT, VGRGGGYFDY: ND, ND, ND (controls 0 of 9).
GFTFDDYAMH, GISWNSGSICYADSVK, VGRRGGYDDY: 4.62, ND, ND (controls 1 of 9).
GFTFDDYFMH, GISWNSGSIQYADSVK, VGRYGGYFDY: ND, ND, ND (controls 0 of 9).
GFTFDDGCMH, GISWNSGSIGYADSVK, VGRGGYYFDY: ND, 6.25, ND (controls 3 of 9).
GFTFDDYAMH, GIGWNSHSIGYADSVK, VGTGGGYFDY: 3.32, 3.43, 3.18 (mean 3.31; controls 3 of 9).
YFTDDDYAMH, GISWNSGSIGVADSVK, VGRGGGYFDY: ND, ND, ND (controls 0 of 9).
GFRFDDYAMH, GISWNSGSIGYADSVK, VGRGGGMFDE: 1.37, 1.34, 0.84 (mean 1.18; controls 3 of 9).
GFTFDDYAMH, GISWNSGSIGCVDSFK, VGRGGGYFDY: 4.28, 4.93, ND (mean 4.60; controls 3 of 9).
GFTFDDYAMH, GISVNSGSIAYADSVW, VGRGGGYFDY: 6.17, ND, 5.18 (mean 5.68; controls 3 of 9).
GFTFDDYAMH, GISINSGSIGYADSVK, KGCGGGYFDY: 2.06, 2.02, 1.99 (mean 2.02; controls 4 of 9).
GFTFDDYAKH, GISWNSKSIGYADSVK, VGRGQGYFDY: 4.17, ND, ND (controls 1 of 9).
GFTFDDVAMH, GISWNSGSIGYGDSVE, VGRGGGYFDY: 2.50, 3.42, 4.13 (mean 3.35; controls 1 of 9).
GETFDDYAMN, GISWNSGSIGYADSTK, VGRGGGYFDY: ND, ND, 4.93 (controls 2 of 9).
GFTFDDYAMH, GISCNSGSIGDCDSVK, VGRGGGYFDY: 5.07, 4.59, ND (mean 4.83; controls 4 of 9).
GFDFDDYAMH, GISWNYGSIGYADSVK, VGRGGGYFDY: 4.49, ND, ND (controls 3 of 9).
GFTFDDYSMH, GISWNSGMIGYADSVN, VGRGGGYFDY: ND, ND, ND (controls 1 of 9).
GFTRYDYAMH, GISWGSGSIGYADSVK, VGRGGGYFDY: ND, ND, ND (controls 1 of 9).
GFTFDDYAMH, GISWNSGSIGVADQVK, VGRGGGYFFY: ND, 5.96, 5.77 (mean 5.86; controls 5 of 9).
GFTFDDYEMH, GISWFSGSIGYAKSVK, VGRGGGYFDY: ND, 4.80, ND (controls 4 of 9).
GFTFDDYAMI, GVSWNSGSIGYADSVQ, VGRGGGYFDY: 4.94, 5.77, 4.09 (mean 4.93; controls 6 of 9).
GFTFDDYAMH, GISWNSGSIGYWDSVK, VGRGNGYFDF: 4.25, 6.19, ND (mean 5.22; controls 4 of 9).
GFTFDDYAMH, GISWSSGNIGYADSVK, VGRGGGYFDY: ND, ND, ND (controls 0 of 9).
GDTFDDYAMH, GIWWNSGSIGYADSVK, VGRGGGYFDY: ND, ND, ND (controls 0 of 9).
GFTMDDYAMW, GISWNSGSGGYADSVK, VGRGGGYFDY: ND, 4.35, ND (controls 1 of 9).
GFTFVDYAMH, GISWMSGSIGYADSVK, VGEGGGYFDY: 4.61, 4.72, ND (mean 4.67; controls 0 of 9).
GFTFDDVAYH, GISWNSGSIGYADSVK, VGRGGGYFDY: ND, 4.28, ND (controls 4 of 9).
GRGFDDYAMH, GISWNSGSIGYADSVK, VGRGGHYFDY: 3.34, 4.24, 3.04 (mean 3.54; controls 6 of 9).
GFTFDDYAMH, GISINSGSIYYADSVK, VGRGGGYIDY: ND, ND, 4.44 (controls 1 of 9).
GQTFDDYAMV, NISWNSGSIGYADSVK, VGRGGGYFDY: ND, 4.59, ND (controls 1 of 9).
GPTFDDYAMH, GISWNSGSQGYADSVK, VGRWGGYFDY: 5.52, 5.65, 5.29 (mean 5.49; controls 3 of 9).
GFTFCWYAMH, GISWNSGSWGYADSVK, VGRGGGYFDY: ND, 4.02, 4.44 (mean 4.23; controls 1 of 9).
GFTFKDYAMH, GISWYSGSIGYADRVK, VGRGGGYFDY: 3.89, 3.95, 3.51 (mean 3.79; controls 5 of 9).
GFTFDDYAFH, GISWNFGSIGYADSVK, VGRGGGYFVY: 3.79, ND, ND (controls 3 of 9).
GFTFDDYAED, GISWNSGSTGYADSVK, VGRGGGYFDY: 4.47, 5.64, 4.44 (mean 4.85; controls 3 of 9).
GFRFSDYAMH, GISWNSGSIGYADSVK, VGRGGGYFDY: 3.88, ND, ND (controls 0 of 9).
GFTFDDYARH, GISWNSGSIGYADMVK, VGRGGGNFDY: ND, ND, ND (controls 1 of 9).
GFTFDDYAMH, GISWNNGSIGYADSVK, VGRGGGYFDY: 3.09, ND, ND (controls 1 of 9).
GFTFDDYAMH, GISWNSGSIGYADSVK, VGRHEGYFLY: ND, ND, ND (controls 0 of 9).
GFPFDVYAMH, GISWNSGSIGYADSKK, VGRGGGYFDY: ND, ND, ND (controls 0 of 9).

In this assay the parent's reference entry averaged 1.86; its copy inside this library read 0.88. Three control strains display no target. For library AAYL51, 21% of the pairings with them gave a signal, with a median of 4.54 and one signal in twenty below 3.26, so weak values seen in few replicates may be background. The control count says in how many pairings with the empty strains this scFv gave a signal.

Data: MIT Lincoln Laboratory AlphaSeq set, Engelhart et al. 2022, doi:10.1038/s41597-022-01779-4, as distributed in FLAb.